{
  "source": "ChEMBL document CHEMBL5126627",
  "about": "“Structure-Kinetic Relationship Studies for the Development of Long Residence Time LpxC Inhibitors” (J Med Chem, 2022)",
  "system": "Pseudomonas aeruginosa",
  "test": "Binding affinity to Pseudomonas aeruginosa LpxC assessed as residence time incubated for 18 hrs by fluorescence based assay",
  "data": [
    {"molecule": "COc1ccc(-c2ccn(CCC(C)(C(=O)NO)S(C)(=O)=O)c(=O)c2)cc1", "note": "(racemic)", "values": [
      {"measurement": "TIME", "value": 0.25, "unit": "h"}
    ]}
  ]
}
